One substance from patent publication US20050208528A1, “Enhancement of the stability of oligonucleotides comprising phosphorothioate linkages by addition of water-soluble antioxidants” (ISIS Pharmaceuticals, Inc., priority 2001, published 2005) can be followed below.

Holding throughout (assay type): physicochemical
Data set [1] has as its system ISIS 2302. In words: Desulfurization in bi-phasic cream formulation with oil-soluble antioxidants, 40° C. for 2 days. To be noted: 40° C. 2 days; for Full PS content (%): 0.03% ISIS 2302, 0 mg gives 83.9. The protocol:
A cream formulation was prepared containing 5.0 g BRIJ 58 (polyoxyethylene[20]cetyl ether), 0.03% ISIS 2302 and different concentrations of phenolic antioxidants.

Data set [2] has as its system ISIS 2302. The experiment in a line: Desulfurization in bi-phasic cream formulation with water-soluble and oil-soluble antioxidants, 40° C. for 6 days. Conditions: additive 4.7 mg, 0.03% ISIS 2302, 40° C. 6 days, no additive 84.7. The protocol: The cream was heated at 40° C. for 6 days and the oligonucleotide was isolated by ethanol precipitation and analyzed for full PS content by SAX chromatography.

The subject of data set [3] is phosphorothioate oligonucleotide (ISIS-2302). The experiment in a line: Desulfurization of phosphorothioate oligonucleotide in mono-phasic system with oil-soluble antioxidants (SAX chromatography). To be noted: 5 mg additive; 0.5 g PEG-40-monostearate, 1.5 ml phosphate buffer pH 7.0, 1.5 mg ISIS-2302; 65° C. 20 hours; no antioxidants 51.0. The protocol: Polyethyleneglycol-40-monostearate (0.5 g), a water-soluble excipient which forms peroxides in the absence of antioxidants, was heated at 65° C. for 20 hours with 1.5 ml phosphate buffer, pH 7.0 and 1.5 mg phosphorothioate oligonucleotide (ISIS-2302) in the absence or presence of various oil-soluble antioxidants. Oligonucleotides were isolated by ethanol precipitation and phosphorothioate content was determined by strong anion exchange (SAX) chromatography.

Consider 2 + 3 t-butyl-4-methoxyphenol [BHA], for which the “Full PS content (%)” value is 80.7% with ISIS 2302 [1] (5 mg antioxidant in 100 g cream); 86.9% in the data set on ISIS 2302 [1] (10 mg antioxidant in 100 g cream); 81.1% in the data set with ISIS 2302 [1] (25 mg antioxidant in 100 g cream); 77.7% with ISIS 2302 [1] (50 mg antioxidant in 100 g cream); 77.7% in the data set on ISIS 2302 [1] (75 mg antioxidant in 100 g cream); 74.6% with ISIS 2302 [1] (100 mg antioxidant in 100 g cream). Further, the “Full PS content (%)” value in the data set with ISIS 2302 [2] is 80.9%. The “Protection of phosphorothioate oligonucleotides against desulfurization (in words)” value in the data set on ISIS 2302 [1] (biphasic cream) is reported as “do not provide protection”. Further, the “Full PS content (area-% SAX)” value in data set [3] stood at 71.5 area-% SAX.
